Laboratory results from PMC5708365, “Histone lysine methyltransferase structure activity relationships that allow for segregation of G9a inhibition and anti-Plasmodium activity” (MedChemComm, 2017).
Read-outs that look alike come from different tables or passages of the source.

Experiments:
G9a [1] = biological target: T1, G9a (Homo sapiens, UniProt Q96KQ7); conditions: read-out: G9a IC50; SPA, 5 nM G9a, H3 1-25 peptide 0.8 μM, 3H-SAM 8 μM
T1 sequence (Q96KQ7 1-1210): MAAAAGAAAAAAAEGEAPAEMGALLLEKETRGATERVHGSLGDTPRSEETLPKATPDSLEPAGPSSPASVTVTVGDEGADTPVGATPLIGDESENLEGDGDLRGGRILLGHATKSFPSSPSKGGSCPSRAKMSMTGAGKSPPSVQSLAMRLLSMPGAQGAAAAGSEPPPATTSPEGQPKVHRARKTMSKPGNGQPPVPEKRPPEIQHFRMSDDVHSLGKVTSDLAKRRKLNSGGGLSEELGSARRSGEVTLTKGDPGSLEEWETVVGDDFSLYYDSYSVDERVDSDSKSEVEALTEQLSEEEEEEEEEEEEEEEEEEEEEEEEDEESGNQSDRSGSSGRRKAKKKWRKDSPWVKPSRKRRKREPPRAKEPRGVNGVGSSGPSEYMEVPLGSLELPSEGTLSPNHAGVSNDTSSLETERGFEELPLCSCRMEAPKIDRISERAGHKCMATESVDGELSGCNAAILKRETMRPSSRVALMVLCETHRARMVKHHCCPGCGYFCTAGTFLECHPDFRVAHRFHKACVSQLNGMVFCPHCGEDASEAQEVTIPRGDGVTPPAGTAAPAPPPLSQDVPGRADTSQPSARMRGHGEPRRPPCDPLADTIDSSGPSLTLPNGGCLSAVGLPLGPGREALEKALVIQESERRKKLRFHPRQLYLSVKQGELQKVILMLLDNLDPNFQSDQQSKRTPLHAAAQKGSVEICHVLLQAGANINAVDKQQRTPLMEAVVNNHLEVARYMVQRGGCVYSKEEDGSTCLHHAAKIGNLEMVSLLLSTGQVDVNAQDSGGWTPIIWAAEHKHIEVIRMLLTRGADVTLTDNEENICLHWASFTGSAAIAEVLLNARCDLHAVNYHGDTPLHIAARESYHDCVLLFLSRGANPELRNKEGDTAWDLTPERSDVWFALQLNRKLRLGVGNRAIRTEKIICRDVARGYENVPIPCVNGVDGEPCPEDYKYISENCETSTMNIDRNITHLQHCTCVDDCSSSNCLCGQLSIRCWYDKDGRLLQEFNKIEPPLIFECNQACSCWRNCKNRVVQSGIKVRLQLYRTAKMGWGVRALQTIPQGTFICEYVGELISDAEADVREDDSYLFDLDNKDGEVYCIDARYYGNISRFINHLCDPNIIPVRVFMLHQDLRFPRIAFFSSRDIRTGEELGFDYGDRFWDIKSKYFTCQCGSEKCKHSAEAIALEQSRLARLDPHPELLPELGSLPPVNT

G9a [2] = biological target: T1, G9a; conditions: read-out: G9a IC50; ECSD assay; cited from earlier work
G9a [3] = biological target: T1, G9a; conditions: read-out: G9a IC50; CLOT assay; cited from earlier work

COc1cc2nc(N3CCC(OC)CC3)nc(NC3CCN(CC4CCCCC4)CC3)c2cc1OC [compound 47]
IC50 (G9a [1]): 0.185 µM

COc1cc2nc(N3CCN(C)CC3)nc(NC3CCN(C4CCCCC4)CC3)c2cc1OC [compound 49]
IC50 (G9a [1]): 0.049 µM

COc1cc2c(NC3CCN(C)CC3)nc(N3CCCN(C)CC3)nc2cc1OCCCN(C)C [compound 66, reference compound]
IC50 (G9a [2]): 0.043 µM
IC50 (G9a [3]): 0.057 µM
